Data reported in article PMC7723054.
The list shows a part of the results.

T1: LIN28A (human?, UniProt Q9H9Z2 1-209)
T1 sequence: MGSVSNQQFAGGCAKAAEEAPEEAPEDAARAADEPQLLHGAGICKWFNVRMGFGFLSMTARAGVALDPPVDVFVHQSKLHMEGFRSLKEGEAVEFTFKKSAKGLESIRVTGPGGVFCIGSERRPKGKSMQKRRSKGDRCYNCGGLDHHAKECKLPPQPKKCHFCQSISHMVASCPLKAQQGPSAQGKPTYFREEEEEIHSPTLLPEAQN

T2: CIRBP (Homo sapiens, UniProt Q14011 1-172)
T2 sequence: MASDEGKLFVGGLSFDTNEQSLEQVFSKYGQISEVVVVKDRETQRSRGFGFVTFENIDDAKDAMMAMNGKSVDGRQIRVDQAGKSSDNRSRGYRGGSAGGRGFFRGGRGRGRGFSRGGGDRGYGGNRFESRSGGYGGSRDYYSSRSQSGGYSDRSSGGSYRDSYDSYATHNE

T3: DHX36 (Homo sapiens, UniProt Q9H2U1 1-1008)
T3 sequence: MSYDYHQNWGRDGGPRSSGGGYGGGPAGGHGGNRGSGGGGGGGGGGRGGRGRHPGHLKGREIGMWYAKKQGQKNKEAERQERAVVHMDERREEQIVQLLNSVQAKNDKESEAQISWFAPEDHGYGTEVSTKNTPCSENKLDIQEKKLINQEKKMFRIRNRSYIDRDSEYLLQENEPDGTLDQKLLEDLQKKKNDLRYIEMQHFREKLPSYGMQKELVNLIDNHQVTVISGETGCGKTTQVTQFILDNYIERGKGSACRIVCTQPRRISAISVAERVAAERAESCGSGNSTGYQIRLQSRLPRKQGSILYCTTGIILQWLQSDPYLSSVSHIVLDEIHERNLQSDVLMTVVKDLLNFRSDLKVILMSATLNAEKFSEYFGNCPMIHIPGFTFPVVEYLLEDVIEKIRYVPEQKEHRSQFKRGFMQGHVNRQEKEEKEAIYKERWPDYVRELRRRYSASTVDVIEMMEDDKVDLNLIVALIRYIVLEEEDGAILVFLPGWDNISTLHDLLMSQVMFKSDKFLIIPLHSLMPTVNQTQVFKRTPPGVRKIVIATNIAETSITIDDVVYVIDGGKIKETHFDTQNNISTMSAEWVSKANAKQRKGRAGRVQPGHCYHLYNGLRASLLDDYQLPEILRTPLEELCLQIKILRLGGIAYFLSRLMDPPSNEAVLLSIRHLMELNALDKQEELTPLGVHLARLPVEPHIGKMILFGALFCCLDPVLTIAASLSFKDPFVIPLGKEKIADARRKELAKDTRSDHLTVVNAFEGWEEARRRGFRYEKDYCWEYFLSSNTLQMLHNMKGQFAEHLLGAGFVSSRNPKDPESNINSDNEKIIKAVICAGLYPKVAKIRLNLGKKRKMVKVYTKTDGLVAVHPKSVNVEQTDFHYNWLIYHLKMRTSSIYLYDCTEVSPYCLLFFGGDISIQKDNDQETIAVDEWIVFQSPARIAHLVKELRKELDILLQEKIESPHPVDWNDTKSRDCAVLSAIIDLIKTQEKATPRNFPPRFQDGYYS

B1: hsa-mir-4999 (structured_RNA)
RNA: GGGAAUGUACACGGAGAGUAACCCGGAAGGUGUACGAAGUUUCAGCGUGAUAGGAUUUAUCACGCUGAAGCUUCGUGCAC
B2: hsa-mir-4309 (structured_RNA)
RNA: GGGAAUGUCGAACGUCACGGAUUAGCCAGGUGUACGAAGUUUCAGCUCCAGGAUCUGGGUUUUGAGGUCUUGGGCUGAAGCUUCGUGCAC
B3: hsa-mir-1304 (structured_RNA)
RNA: GGGAGCUACCAGGUUGUAUCUGACUACGGGUGUACGAAGUUUCAGCGAGAUGUGAUCCUGCCACAUCUCGCUGAAGCUUCGUGCAC
B4: hsa-mir-4657 (structured_RNA)
RNA: GGGAAGUCUCAAAGGCCGGGUUAAAACCGGUGUACGAAGUUUCAGCGCAUAUAGAGUAUAUGCGCUGAAGCUUCGUGCAC
B5: hsa-mir-222 (structured_RNA)
RNA: GGGACACAUUGGGAAACGAGCUGCCAUAGGUGUACGAAGUUUCAGCAGAUCCUGUCUUUCGUAAUCAGCAGCUGCUGAAGCUUCGUGCAC
B6: hsa-mir-766 (structured_RNA)
RNA: GGGACUGAUAACGUUGGUUUACGCAACAGGUGUACGAAGUUUCAGCUCUUUCAUUUUGGAUUUGACUGCUGAAGCUUCGUGCAC
B7: hsa-mir-4290 (structured_RNA)
RNA: GGGAAGCCACCUCGGAGAUGUCUAACCAGGUGUACGAAGUUUCAGCGUCAGUCCCAAUCUGAAUCCCACCAAAAUAGGUGGUAGAGGGUUGCGCUGAAGCUUCGUGCAC
B8: hsa-mir-376a-2 (structured_RNA)
RNA: GGGAAGCGCAUGACAGUGCUCUAUUGCUGGUGUACGAAGUUUCAGCUGGUUACGUGUUUGAUGGUUAAUCAGCUGAAGCUUCGUGCAC
B9: hsa-mir-6866 (structured_RNA)
RNA: GGGAACCAGUUAGACUGUUACCCAGGUUGGUGUACGAAGUUUCAGCGAUUCUUGAGGCUUGGAAGAGUAAGGAUCGCUGAAGCUUCGUGCAC
B10: hsa-mir-124-2 (structured_RNA)
RNA: GGGAAUAGUCCAGGCCCGGGAAUGUUACGGUGUACGAAGUUUCAGCCUUGAUUUAAUGUCAUACAAUUAAGGCUGAAGCUUCGUGCAC
B11: NEAT1_ParasoR_ID28 (structured_RNA)
RNA: GGGAAGCCCCUGAAGUGAGUAAGUUAUCGGUGUACGAAGUUUCAGCCUGAGUUGCUUCACUUAGGCUGAAGCUUCGUGCAC
B12: hsa-mir-4642 (structured_RNA)
RNA: GGGAAAACACCACCGUGCUGCAUUCGAUGGUGUACGAAGUUUCAGCGGCUGUGGCCUAGGGCAAGCCACAAAGCCGCUGAAGCUUCGUGCAC
B13: hsa-mir-5687 (structured_RNA)
RNA: GGGAAAUUCCGGCACGGGCGGUUAAAAUGGUGUACGAAGUUUCAGCCUAAAUGGUACCCACUUUAUUUAGGCUGAAGCUUCGUGCAC
B14: hsa-mir-520d (structured_RNA)
RNA: GGGAACUCACAAUUUCCUUCGCCGGGAUGGUGUACGAAGUUUCAGCCUUUCUGUUGUCUAAAAGAAAAGAAAGGCUGAAGCUUCGUGCAC
B15: hsa-mir-6077 (structured_RNA)
RNA: GGGAGGUUGGAGUCAGAAGCAUCGCCUGGGUGUACGAAGUUUCAGCCUUCGCGCUAGUUUGUUUGUGUUAAGGCUGAAGCUUCGUGCAC
B16: hsa-mir-8069-2_8069-1 (structured_RNA)
RNA: GGGAAGGACGUCAGCAAAACUAGCUCGCGGUGUACGAAGUUUCAGCAUCUUCCUGACCUGGUAAUAAUUAGGUGAGAAGGAUGCUGAAGCUUCGUGCAC
B17: hsa-mir-124-1 (structured_RNA)
RNA: GGGAAAGGAGCGCACAUCGAGUAGCCAUGGUGUACGAAGUUUCAGCCUUGAUUUAAAUGUCCAUACAAUUAAGGCUGAAGCUUCGUGCAC
B18: hsa-mir-5787 (structured_RNA)
RNA: GGGACCUGGUGGUCCUAGUUAAACCUCGGGUGUACGAAGUUUCAGCAGGUGCUAGGUCGGCCUCGGCGCUGAAGCUUCGUGCAC
B19: hsa-mir-4458 (structured_RNA)
RNA: GGGAAUAUGGACAGGCUCCCCGUAUAUCGGUGUACGAAGUUUCAGCAGAAAGUGAAACACUAUUUUAGGUUUUGCUGAAGCUUCGUGCAC
B20: hsa-mir-8054 (structured_RNA)
RNA: GGGAGGGUAGAUCCGAAAGUUUCAAGUCGGUGUACGAAGUUUCAGCGGGUUCAAUAGAUUGCUUUAGCUGAAGCAAGCCUGCUGAAGCUUCGUGCAC
B21: hsa-mir-6869 (structured_RNA)
RNA: GGGAAGAGAGACUUGAUAUUCCGAUCCCGGUGUACGAAGUUUCAGCGGCGGCUCGGAGUACCUCUGCCGCCGCUGAAGCUUCGUGCAC
B22: hsa-mir-4680 (structured_RNA)
RNA: GGGAACGCCCCAGAUAACUAUGCGCUGAGGUGUACGAAGUUUCAGCUAGAUGUUAUAAAAAUAUAUAUCUGGCUGAAGCUUCGUGCAC
B23: hsa-mir-193a (structured_RNA)
RNA: GGGAAACCCGAGCAGCAUCCCGAAUGUUGGUGUACGAAGUUUCAGCAGAUGAGGGUGUCGGAUCAACUGCUGAAGCUUCGUGCAC
B24: hsa-mir-1277 (structured_RNA)
RNA: GGGAAACUUGACGGGGAUCACUAAGAACGGUGUACGAAGUUUCAGCCGUAUGUGUAUAUAAAUGUAUACGGCUGAAGCUUCGUGCAC
B25: hsa-mir-3064 (structured_RNA)
RNA: GGGACAAAUGUGAGGCCAAGGGUCUGGUGGUGUACGAAGUUUCAGCCAAAACUCCGUACAUUGCUAUUUUGCGCUGAAGCUUCGUGCAC
B26: hsa-mir-4673 (structured_RNA)
RNA: GGGAGGACCAAUGUGUAUAACGCGAUUAGGUGUACGAAGUUUCAGCUGGACCUCAGGGAAGAGGCUGGCUGAAGCUUCGUGCAC

Assays:
Assay in all cases: FOREST: bead pull-down of RNA structure library v1, barcode microarray; U1A/LIN28A: 20 mM HEPES pH 7.5, 80 mM KCl, 20 mM NaCl, 10% glycerol, 2 mM DTT, 0.1 ug/uL BSA, 4 C; BG4/CIRBP/DHX36: 10 mM Tris-HCl pH 7.5, 100 mM KCl (or LiCl),; high values mean tight binding
[1] = target: T1, LIN28A
[2] = target: T2, CIRBP
[3] = target: T3, DHX36

Row | Binder | binding signal [1] [z-score] | binding signal [2] [z-score] | binding signal [3] [z-score]
1 | B1 | -0.0076 | 0.657 | -0.327
2 | B2 | -0.0204 | -0.303 | -0.417
3 | B3 | 0.0221 | -0.184 | -0.0771
4 | B4 | 0.0189 | -0.0889 | 0.175
5 | B5 | -0.0263 | 0.239 | -0.815
6 | B6 | 0.0248 | -0.769 | -0.72
7 | B7 | -0.0113 | 0.71 | 0.278
8 | B8 | 0.0414 | 0.21 | -0.89
9 | B9 | -0.00211 | -0.831 | -0.865
10 | B10 | -0.0225 | 0.277 | -0.271
11 | B11 | 0.0158 | 0.941 | 0.259
12 | B12 | 0.00489 | 0.404 | 0.793
13 | B13 | 0.0115 | -0.99 | -0.804
14 | B14 | 0.032 | 1.27 | -0.0616
15 | B15 | 0.00211 | 0.444 | 0.204
16 | B16 | 0.00845 | -0.194 | -0.0446
17 | B17 | -0.0205 | 0.789 | -0.636
18 | B18 | 0.0108 | -0.412 | -0.987
19 | B19 | -0.00537 | 0.322 | -1.09
20 | B20 | -0.0106 | -0.586 | -0.802
21 | B21 | 0.0343 | 0.0878 | -0.326
22 | B22 | -0.0053 | -0.411 | -0.879
23 | B23 | -0.0201 | 0.372 | -0.564
24 | B24 | -0.00881 | 1.04 | -0.166
25 | B25 | -0.00831 | -0.358 | -0.158
26 | B26 | 0.0182 | 1.02 | 0.162
